# Antibody variant affinities, Ab-95 light chain, assay 2

Source: Engelhart et al. 2022 (doi:10.1038/s41597-022-01779-4), MIT Lincoln Laboratory and A-Alpha Bio; data file from the FLAb repository.

Antigen: PDVDLGDISGINAS, a 14-residue peptide of the SARS-CoV-2 spike HR2 region.

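The parent was found by panning a naive human phage display library on the peptide. AAYL52 was designed without a model: most single CDR substitutions and a random sample of double and triple ones. AlphaSeq pools MATa yeast showing the antibodies with MATalpha yeast showing the peptide. After mating in shaken culture at 30 °C for 16 h, diploids were selected and their barcode pairs sequenced. Scores were corrected for input abundance and mapped to Kd with protein pairs of known affinity run in the same pool. Each pool was mated in three replicate cultures.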

Parent: Ab-95, a human scFv built as VH, the linker GGGGSGGGGSGGGGS, VL. Only the CDRs of the light chain vary.
VH: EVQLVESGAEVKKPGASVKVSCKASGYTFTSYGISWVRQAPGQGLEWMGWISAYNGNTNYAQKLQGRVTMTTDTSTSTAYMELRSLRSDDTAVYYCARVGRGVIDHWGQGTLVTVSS
VL: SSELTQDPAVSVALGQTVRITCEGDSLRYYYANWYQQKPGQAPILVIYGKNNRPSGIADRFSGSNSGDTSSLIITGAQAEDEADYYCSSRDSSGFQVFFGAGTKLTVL

Changes read parent residue, position, new residue, counted from the first residue of the VL shown.
All variants listed here change S55 of the VL, counted from its first residue.
Kd is apparent (estimated from mating counts) and averaged on the log scale over replicates with a signal. Smaller is tighter.
An entry "nd" has no value in the source: the pair was not observed among the diploids in any replicate. This suggests poor binding but is not conclusive.
Parent in this assay: reference entry 200 nM, copy in this library 180 nM.
Background: pairings of library AAYL52 with three empty control strains gave a value in 28% of cases (median 8.2 µM, 5th percentile 800 nM). Values in that range, when seen in few replicates, are hard to tell from nonspecific mating.

- N52Q+S55Y+S92N -> 220 nM (3 of 3 replicates)
- S55F+R90A+D91Q -> nd (0 of 3 replicates)
- S55D+S93R+G94I -> 12 µM (2 of 3 replicates)
- E23R+S55Q+S89I -> 610 nM (3 of 3 replicates)
- Y29V+S55W+R90G -> 1.5 µM (1 of 3 replicates)
- Y30V+Y31W+S55Q -> 240 nM (3 of 3 replicates)
- R28W+S55L+S92H -> 5.0 µM (2 of 3 replicates)
- S55M+S88D+V97I -> 8.1 µM (2 of 3 replicates)
- S55H+D91G -> 1.6 µM (3 of 3 replicates)
- R28S+Y29V+S55L -> 2.2 µM (3 of 3 replicates)
- S55Q+F95C+F98E -> nd (0 of 3 replicates)
- K50F+S55E+S89N -> 250 µM (1 of 3 replicates)
- Y29G+S55P+V97Y -> 150 nM (3 of 3 replicates)
- S55K+S92A+V97I -> 91 nM (1 of 3 replicates)
- S55F+S93C+F95K -> 2.7 µM (3 of 3 replicates)
- L27V+R28E+S55T -> 2.3 µM (1 of 3 replicates)
- S26V+S55D+Q96K -> 4.3 µM (3 of 3 replicates)
- K50E+S55D -> 68 nM (3 of 3 replicates)
- E23C+G49L+S55A -> 1.3 µM (1 of 3 replicates)
- A32M+S55V+R90V -> 7.5 µM (2 of 3 replicates)
- Y30S+S55K+S88Y -> 140 nM (3 of 3 replicates)
- L27N+S55I+S92G -> 7.8 µM (3 of 3 replicates)
- Y29C+K50R+S55G -> nd (0 of 3 replicates)
- D25F+N51V+S55K -> nd (0 of 3 replicates)
- R28V+S55Q+R90V -> 4.9 µM (2 of 3 replicates)
- Y30G+N52I+S55R -> 15 nM (3 of 3 replicates)
- E23D+S55G -> 30 nM (3 of 3 replicates)
- E23Q+S55R+F98H -> 110 nM (3 of 3 replicates)
- L27Y+S55P+F98N -> 38 µM (1 of 3 replicates)
- N52E+R53Y+S55D -> 3.6 µM (3 of 3 replicates)

A selection of 2 entries from above:

changes,apparent Kd,seen in
D25F+N51V+S55K,nd,0/3
L27N+S55I+S92G,7.8 µM,3/3